Measurements taken from patent publication US20140213538A1, “LYSOPHOSPHATIDIC ACID RECEPTOR ANTAGONISTS” (InterMune, Inc., priority 2013, published 2014).

By UniProt entry, the sequences of proteins in these tests, tags left out. Where a name states a change or a piece, a line headed by the entry shows the natural chain unless it says otherwise.
UniProt Q92633, whole entry: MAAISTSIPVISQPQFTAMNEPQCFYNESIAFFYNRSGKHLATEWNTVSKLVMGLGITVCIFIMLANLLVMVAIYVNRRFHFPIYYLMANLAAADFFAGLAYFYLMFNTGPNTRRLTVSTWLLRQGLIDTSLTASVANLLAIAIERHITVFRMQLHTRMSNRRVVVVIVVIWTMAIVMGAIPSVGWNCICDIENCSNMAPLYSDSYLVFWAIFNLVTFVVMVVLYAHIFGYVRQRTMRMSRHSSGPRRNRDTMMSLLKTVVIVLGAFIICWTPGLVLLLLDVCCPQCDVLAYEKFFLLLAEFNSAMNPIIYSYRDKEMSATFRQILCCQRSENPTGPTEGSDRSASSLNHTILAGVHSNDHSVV

Tests used:
[1] = molecular target: LPA/S1P GPCR of interest (Homo sapiens, UniProt Q92633); assay: Beta-Arrestin based assay (PathHunter); settings: read-out: Beta Arrestin EC50
Experimental: CMV promoter based DNA constructs expressing a fusion of the LPA/S1P GPCR of interest and ProLink™ tag were used to transfect EA Parental™ CHO cells (DiscoverX, Fremont, Calif.) using a FuGENE® transfection kit (Roche). Beta-Arrestin based assays were conducted 24-48 hrs post transfection using PathHunter® assay kits (DiscoverX, Fremont, Calif.). Agonist and antagonist assays were performed in quadruplicate in white 384 well plates. End point luminescence data were plotted and fit to a 4 parameter logistic function to obtain IC50 values. For antagonist assays, an IC80 concentration of agonist (LPA) equal to 0.5 micromolar was used.

[2] = molecular target: T1, LPA1 (Homo sapiens, UniProt Q92633); assay: LPA1 Migration Assay (Oris); format: cell-based; settings: read-out: Cell Migration EC50
Description: LPA1 Migration Assay Migration of primary fibroblasts (including lung, dermal), HFL-1, 3T3 and CHO cells expressing LPA1R were monitored using the Oris™ assay (Platypus Technologies, Madison, Wis.). These cells were dye (Cell Tracker Green™) loaded and serum starved for 12-24 hrs. In response to chemoattractants such as LPA and serum, the cells migrated inward in to the exclusion (detection) zone. After fixing, fluorescent cells in the detection zone were counted using a high content reader. The ability of LPA1 antagonists to inhibit cell migration is quantified by plotting cell number vs. compound concentration and curve fitting the resulting dose-response curve to a 4 parameter logistic function.

[3] = molecular target: T1, LPA1; assay: Ca Flux LPA1 assay; format: cell-based; settings: read-out: Ca Flux LPA1 IC50

Structure (SMILES) | pEC50 [1] | pEC50 [2] | pIC50 [3]
Cc1nsc(-c2cc3sc(-c4ccc5c(CC(=O)O)c[nH]c5c4)cc3s2)c1NC(=O)O[C@H](C)c1ccccc1 | < 6.30 |  | 
C[C@@H](OC(=O)Nc1c(-c2ccc(-c3ccc(OC(C)(C)C(=O)O)c(F)c3)cc2)cnn1C)c1ccccc1 | 6.30 to 7.30 | 6.30 to 7.30 | 

Results, then the compound that gave them:

pEC50 [1] | pEC50 [2] | pIC50 [3] | Structure (SMILES)
6.30 to 7.30 |  |  | C[C@@H](OC(=O)Nc1c(-c2cc3sc(-c4ccc(CC(=O)O)c(F)c4F)cc3s2)cnn1C)c1ccccc1 [IT211]
 | 6.30 to 7.30 |  | C[C@@H](OC(=O)Nc1c(-c2ccc(-c3ccc(C4(C(=O)O)CC4)cc3)cc2)cnn1C(F)(F)F)c1ccccc1
> 7.30 | 6.30 to 7.30 | < 6.30 | Cc1nsc(-c2cc(F)c(-c3cc4sc(C5(C(=O)O)CC5)cc4s3)cc2F)c1NC(=O)O[C@H](C)c1ccccc1

pEC50, pIC50: −log10 of the molar value.
